Columns and labels:
hERG channel [1] = biological target: T1, hERG channel (Homo sapiens, UniProt Q12809); experiment: Automated patch clamp (Nanion Patchliner) of hERG current in CHO-hERG cells with equimolar Cs+ solutions; format: cell-based
hERG channel [2] = biological target: T1, hERG channel; experiment: Automated patch clamp (Nanion Patchliner) of hERG current in CHO-hERG cells with K+ solutions; format: cell-based
[3] = two-way ANOVA with Dunnett's test vs control

By UniProt entry, the sequences of proteins in these tests, tags left out.
UniProt Q12809, whole entry: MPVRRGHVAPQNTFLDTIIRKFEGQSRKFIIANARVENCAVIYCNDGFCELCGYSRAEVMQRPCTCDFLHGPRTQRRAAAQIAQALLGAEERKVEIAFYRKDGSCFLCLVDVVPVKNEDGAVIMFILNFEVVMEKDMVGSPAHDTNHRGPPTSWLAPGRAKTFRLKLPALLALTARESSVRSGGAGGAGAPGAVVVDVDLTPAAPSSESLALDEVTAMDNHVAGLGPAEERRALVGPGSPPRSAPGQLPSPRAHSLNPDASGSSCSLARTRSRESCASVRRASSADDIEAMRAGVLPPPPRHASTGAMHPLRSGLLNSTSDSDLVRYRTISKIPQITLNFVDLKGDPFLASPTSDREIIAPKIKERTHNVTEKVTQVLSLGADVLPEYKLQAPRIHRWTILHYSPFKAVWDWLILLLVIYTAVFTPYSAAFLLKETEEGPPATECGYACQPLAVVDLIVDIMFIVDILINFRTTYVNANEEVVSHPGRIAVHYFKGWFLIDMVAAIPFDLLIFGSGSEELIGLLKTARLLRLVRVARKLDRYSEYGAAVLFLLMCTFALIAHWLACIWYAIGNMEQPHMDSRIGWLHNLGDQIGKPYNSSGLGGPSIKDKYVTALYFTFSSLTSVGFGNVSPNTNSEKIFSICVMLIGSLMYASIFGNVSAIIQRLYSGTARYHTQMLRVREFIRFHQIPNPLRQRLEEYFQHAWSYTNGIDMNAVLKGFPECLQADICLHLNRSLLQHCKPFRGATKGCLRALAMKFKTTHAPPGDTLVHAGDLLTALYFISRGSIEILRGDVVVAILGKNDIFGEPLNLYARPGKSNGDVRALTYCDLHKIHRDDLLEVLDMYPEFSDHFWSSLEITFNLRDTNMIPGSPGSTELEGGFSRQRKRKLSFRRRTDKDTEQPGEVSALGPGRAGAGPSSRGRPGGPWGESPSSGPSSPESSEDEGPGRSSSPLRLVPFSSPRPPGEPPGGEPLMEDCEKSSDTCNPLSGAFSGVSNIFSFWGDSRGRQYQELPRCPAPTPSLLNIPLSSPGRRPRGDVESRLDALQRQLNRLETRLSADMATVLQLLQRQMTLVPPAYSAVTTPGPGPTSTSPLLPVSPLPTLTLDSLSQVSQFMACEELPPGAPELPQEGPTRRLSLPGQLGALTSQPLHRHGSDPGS

SMILES: O=C(COc1ccc(C(=O)c2cccc(Cl)c2)cc1)Nc1cccnc1
- Log(IC50) (hERG channel [1]; printed as log(IC50) with negative sign, maximal tail current at +40 mV, Hill fit, 22°C): −5.7
- concentration corresponding to relative log (IC50) (hERG channel [1]; relative IC50, tail current): 0.3 µM
- relative log (IC50) (hERG channel [1]; relative instead of absolute IC50, given with negative sign, tail current): −6.5
- Hill coef. (hERG channel [1]; tail current at +40 mV): −0.2
- effect on Cs+ step conductance upon treatment (hERG channel [1]; tested concentration range): lower compared to control at voltages below the reversal potential (0 mV) and higher when tested above the reversal potential
- effect on Cs+ tail conductance upon treatment (hERG channel [1]; tested concentration range): decreased upon treatment
- Log(EC50) (hERG channel [2]; activation, printed as log with negative sign, tail current at +40 mV): −5.8 (EC50)
- increase of maximal K+ step conductance (hERG channel [2]; between control and 30 μM): 10.1 ×
- increase of maximal K+ tail conductance (hERG channel [2]; between control and 30 μM): 4.9 x
- EC50 (hERG channel [2]; read-out: EC50 Conc., activation, tail current at +40 mV): 1600 nM
- Hill coef. (hERG channel [2]; tail current at +40 mV): 1.4
- effect on K+ step conductance upon treatment (hERG channel [2]; tested concentration range): strong dose-dependent increase
- effect on K+ tail conductance upon treatment (hERG channel [2]; tested concentration range): strong dose-dependent increase
- concentration from which K+ step conductance is significantly changed (hERG channel [2]; [3]): 3000 nM
- concentration from which K+ tail conductance is significantly changed (hERG channel [2]; [3]): 3000 nM
